# Experimental data published in PubChem BioAssay AID463193 (University of Pittsburgh Molecular Library Screening Center, 2010).
# The entries are a selection whose mix differs from that of the whole data set. Activity calls are given as the source filed them.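 Rule for the calls: active = percentage of spot-positive cells more than 3 SD above its plate mean, without a fluorescence outlier flag or 80% toxicity; inconclusive = no clear call, values can overlap the other calls; inactive = the rest.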
# Assay: GFP-LC3 puncta formation changes – imaging, high-content, MEF GFP-LC3, primary screen (AID 463193);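 note: spot-positive cell cutoff set from DMSO-treated cells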
# Settings: autophagy, at 10 µM, stronger effect = higher value
row,Compound,% cells with GFP-LC3 spots
1,COc1ccc(NC2CCN(CCc3ccccc3)CC2)c(OC)c1,inactive: 5.18%
2,COc1ccc(C(=O)NCC2(N3CCCCC3)CCCCC2)c(OC)c1OC,inactive: 2.75%
3,O=C(NCC1(N2CCOCC2)CCCCC1)c1cc2ccccc2o1,inactive: 11.1%
4,CCOC(=O)N1CCC(Nc2ccc(OC)cc2)CC1,inactive: 4.48%
5,O=C(OC1CN2CCC1CC2)C1c2ccccc2Oc2ccccc21 (stereo not given),inactive: 31.1%
6,CN(C)c1cccc(C(=O)NCC2(N3CCCCC3)CCCCC2)c1,inactive: 1.51%
7,COc1ccc(CN(CCCl)CCCl)cc1Cl,inactive: 1.95%
8,CC(C)c1ccc(NC2CCN(C(=O)OC(C)(C)C)CC2)cc1,inactive: 8.23%
9,CN1CCC(Nc2cccc(F)c2)CC1,inactive: 2.15%
10,O=C(NCC1(N2CCCCC2)CCCCC1)c1cccc([N+](=O)[O-])c1,inactive: 9.51%
11,N#CC1(Nc2ccccc2)CCN(CCc2ccccc2)CC1,inactive: 0.593%
12,CN1CCN(CCOC(=O)C(O)(c2ccccc2)c2ccccc2)CC1,inactive: 2.67%
13,COc1ccc(NC2CCN(C(=O)OC(C)(C)C)CC2)cc1,inactive: 1.71%
14,O=C(NCC1(N2CCOCC2)CCCCC1)c1cc(=O)[nH]c2ccccc12,inactive: 6.1%
15,N#Cc1ccc(C(=O)NCC2(N3CCCCC3)CCCCC2)cc1,inactive: 0.573%
16,c1ccc(CN2CCC(Nc3ccccc3)CC2)cc1,inactive: 9.35%
17,COc1ccc(C(=O)NCC2(N3CCOCC3)CCCCC2)cc1OC,inactive: 0.138%
18,N/C(=N\O)c1c(N)no[n+]1[O-],inactive: 8.3%
19,O=C(OC1CN2CCC1CC2)C1c2ccccc2C=Cc2ccccc21 (stereo not given),inactive: 17.8%
20,CCOc1ncccc1C(=O)NCC1(N2CCOCC2)CCCCC1,inactive: 4.83%
21,CC(C)(C)OC(=O)N1CCC(Nc2ccccc2)CC1,inactive: 0.141%
22,CCC(CO)(C(=O)OC1CN2CCC1CC2)c1ccccc1 (stereo not given),inactive: 6.51%
23,COc1cc(OC)cc(C(=O)NCC2(N3CCOCC3)CCCCC2)c1,inactive: 10.8%
24,CCN1CCC(Nc2cccc(F)c2)CC1,inactive: 9.12%
25,CN(C)c1ccc(C(=O)NCC2(N3CCCCC3)CCCCC2)cc1,inactive: 0.282%
